Experimental data published in patent publication EP3885436A1, “POLYPEPTIDES WITH PEROXIDASE ACTIVITY” (Technische Universität Wien, priority 2020, dated 2021).
Read-outs that look alike come from different tables or passages of the source.

By UniProt entry, the sequences of proteins in these tests, tags left out. Residues count along the entry.
UniProt P00433, 31-338 N43D/N87S/N205S/N285D/N298D: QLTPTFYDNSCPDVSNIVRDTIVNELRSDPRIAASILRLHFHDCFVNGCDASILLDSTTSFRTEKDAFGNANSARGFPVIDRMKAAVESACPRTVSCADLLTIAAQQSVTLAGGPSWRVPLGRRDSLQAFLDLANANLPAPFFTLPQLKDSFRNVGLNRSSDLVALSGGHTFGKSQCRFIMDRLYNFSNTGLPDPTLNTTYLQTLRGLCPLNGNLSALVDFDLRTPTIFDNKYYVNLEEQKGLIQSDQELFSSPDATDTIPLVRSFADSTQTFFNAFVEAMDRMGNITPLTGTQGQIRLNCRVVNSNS
UniProt P00433, 31-338 N43D/N87S/P176Q/N205S/N285D/N298D/N305K: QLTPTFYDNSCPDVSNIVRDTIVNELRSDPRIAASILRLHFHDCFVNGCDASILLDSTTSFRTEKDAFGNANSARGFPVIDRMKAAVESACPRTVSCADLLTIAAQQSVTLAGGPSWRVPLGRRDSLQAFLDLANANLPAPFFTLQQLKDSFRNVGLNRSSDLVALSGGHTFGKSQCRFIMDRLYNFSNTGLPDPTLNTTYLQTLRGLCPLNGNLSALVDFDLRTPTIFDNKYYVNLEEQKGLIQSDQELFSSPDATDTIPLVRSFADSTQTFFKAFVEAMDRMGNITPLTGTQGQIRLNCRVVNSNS

Experiments:
Format in all cases: biochemical
[1] = molecular target: T1, horseradish peroxidase, wild-type HRP (rHRP, variant C1A, SEQ ID NO: 2), produced in E. coli (Armoracia rusticana, UniProt P00433); experiment: Enzyme kinetic parameters, 96-well plate assay; details: substrate ABTS (0.1 - 7 mM), 1 mM H2O2, 50 mM phosphate-citrate buffer pH 5, 30 °C; Table 5
T1 construct: made in house
T1 sequence (P00433 with tags, fused parts or gaps): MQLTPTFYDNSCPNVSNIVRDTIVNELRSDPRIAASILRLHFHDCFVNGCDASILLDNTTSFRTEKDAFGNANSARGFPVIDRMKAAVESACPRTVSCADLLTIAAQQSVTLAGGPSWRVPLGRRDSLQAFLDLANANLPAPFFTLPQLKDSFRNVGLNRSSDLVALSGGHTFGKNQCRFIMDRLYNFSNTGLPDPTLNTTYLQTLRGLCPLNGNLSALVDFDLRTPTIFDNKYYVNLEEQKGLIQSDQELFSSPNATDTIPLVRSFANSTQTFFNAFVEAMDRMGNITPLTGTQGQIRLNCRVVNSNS
Procedure: (§1) Plant HRP Type VI-A (Cat. No.: P6782) was obtained from Sigma-Aldrich (St. Louis, MO, USA). All HRP variants produced in E. coli consisted of the sequence as set forth in SEQ ID NO: 2 with the indicated mutations unless specified otherwise.
(§2) For measurements with 3,3',5,5'-tetramethylbenzidine (TMB) as substrate, the reaction mixture in each well of the 96-well plate contained a saturating hydrogen peroxide concentration of 1 mM and varying TMB concentrations (20 - 550 µM) in 50 mM phosphate-citrate buffer pH 5 in a final volume of 200 µL. Protein sample (5 µL) was mixed with 175 µl TMB-buffer mixture and the reaction was started with 20 µl hydrogen peroxide solution (10 mM). The increase in absorption was followed at 652 nm for 60s at 30 °C in a Tecan Infinite M200 PRO instrument. The kinetic parameters were calculated using Sigma Plot software (Systat Software INC., San Jose, CA, USA) and an extinction coefficient of ε652 = 39 mM^-1 cm^-1 (see Josephy, et al. "The horseradish peroxidase-catalyzed oxidation of 3, 5, 3', 5'-tetramethylbenzidine. Free radical and charge-transfer complex intermediates." Journal of Biological Chemistry 257.7 (1982): 3669-3675).
The increase in absorption was followed at 420 nm for 120 s at 30 °C in a Tecan Infinite M200 PRO instrument. […]

[2] = molecular target: T2, horseradish peroxidase variant HRP N13D/N57S/N175S/N255D/N268D, produced in E. coli (Armoracia rusticana, UniProt P00433, N205S/N285D/N298D/N43D/N87S); details: substrate ABTS (0.1 - 7 mM), 1 mM H2O2, 50 mM phosphate-citrate buffer pH 5, 30 °C; Table 4
T2 construct: made in house
Procedure: as §1, §2
(§3) The increase in absorption was followed at 420 nm for 120 s at 30 °C in a Tecan Infinite M200 PRO instrument. The kinetic parameters were calculated using Sigma Plot software (Systat Software INC., San Jose, CA, USA) and an extinction coefficient of ε420 = 36 mM^-1 cm^-1 (see Childs and Bardsley. "The steady-state kinetics of peroxidase with 2, 2'-azino-di-(3-ethyl-benzthiazoline-6-sulphonic acid) as chromogen." Biochemical Journal 145.1 (1975): 93-103).
as §3

[3] = molecular target: T3, horseradish peroxidase variant HRP N13D/N57S/P146Q/N175S/N255D/N268D/N275K (mHRP, SEQ ID NO: 4), produced in E. coli (Armoracia rusticana, UniProt P00433, N205S/N285D/N298D/N305K/N43D/N87S/P176Q); details: substrate ABTS (0.1 - 7 mM), 1 mM H2O2, 50 mM phosphate-citrate buffer pH 5, 30 °C
T3 construct: made in house
Procedure: as §1, §2, §3, §3

[4] = molecular target: T4, plant-derived HRP (pHRP), Plant HRP Type VI-A, horseradish peroxidase (Armoracia rusticana, UniProt P00433); experiment: Enzyme kinetic parameters, 96-well plate assay; details: substrate ABTS (0.1 - 7 mM), 1 mM H2O2, 50 mM phosphate-citrate buffer pH 5, 30 °C; Table 5
T4 construct: The plant-derived enzyme undergoes post-translational modifications, resulting inter alia in a free N-terminus without an appended methionine; purchased Sigma-Aldrich P6782; host or cells: extracted from the plant
T4 sequence (P00433 31-338 limits assumed): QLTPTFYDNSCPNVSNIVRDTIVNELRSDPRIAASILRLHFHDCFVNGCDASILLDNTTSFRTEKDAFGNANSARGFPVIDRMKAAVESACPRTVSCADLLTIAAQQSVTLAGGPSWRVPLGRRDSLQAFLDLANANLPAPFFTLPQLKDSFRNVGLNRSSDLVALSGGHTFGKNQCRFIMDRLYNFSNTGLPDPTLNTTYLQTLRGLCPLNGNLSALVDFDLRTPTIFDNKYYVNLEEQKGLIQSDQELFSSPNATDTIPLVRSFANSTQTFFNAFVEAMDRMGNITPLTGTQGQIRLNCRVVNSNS
Procedure: as §1, §2
Protein sample (5 µL) was mixed with 175 µl ABTS-buffer mixture and the reaction was started with 20 µl hydrogen peroxide solution (10 mM). […]

For `CCn1c(=NN=c2sc3cc(S(=O)(=O)O)ccc3n2CC)sc2cc(S(=O)(=O)O)ccc21` [ABTS, 2,2'-azino-bis(3-ethylbenzthiazoline-6-sulfonic acid)], the kcat [1] was 823 ± 25 s⁻¹, the kcat [2] was 786 ± 74 s⁻¹ and the kcat ([3]; Table 4 (Example 3)) was 716 ± 58 s⁻¹. For the same molecule, the kcat ([3]; Table 5 (Example 4)) was 702 ± 56 s⁻¹, the Km [4] was 700 ± 140 µM and the kcat [4] was 734 ± 41 s⁻¹.
